Test results reported in patent US12419964B2, “Antibody drug conjugate (ADC) targeting Nectin 4 and comprising an exatecan payload” (ELI LILLY AND COMPANY, priority 2023, dated 2025).

Assay: Aggregation by SEC-HPLC
Type: physicochemical
Details: determined by SEC-HPLC, after conjugation
Procedure: As determined by SEC-HPLC, less than 5% material was aggregated. […] (See FIG. 2 and corresponding Brief Description). Ex vivo stability of ETx-22 was assessed by incubating ETx-22 in mouse, cynomolgus or human serum and measuring DAR over time. (See FIG. 3 and corresponding Brief Description). In vitro cytotoxic activity was assessed for the HCT-116-2G10 clone expressing human nectin-4. (See FIG. 4 and corresponding Brief Description).
As a comparator ADC, the HA22 anti-Nectin-4 mAb was conjugated to maleimidocaproyl-valine-citrulline-PABC-MMAE to generate enfortumab vedotin. Briefly, a 15 mg/mL solution of the HA22 in 10 mM acetate 1% sorbitol, 3% L-arginine, pH 5.0 was supplemented with a 20% volume of 0.1 M Tris, 25 mM EDTA and 750 mM NaCl, pH 8.4 to adjust the pH of the solution to 7.5, 5 mM EDTA and 150 mM sodium chloride. […] The mixture was stirred for 60 minutes at 5° C., then for 15 additional minutes following the addition of 1 molar equivalents of N-acetylcysteine relative to cysteine reactive linker-MMAE compound. Excess quenched cysteine reactive linker-payload and other reaction components were removed by ultrafiltration/diafiltration of the antibody drug conjugate (ADC) with 10 volumes of 20 mM histidine, pH 6.0. The drug-antibody ratio (DAR) according to LC-MS analysis was 3.79 toxins per conjugated mAb. As determined by SEC-HPLC, less than 1% material was aggregated.

B1: ETx-22: ADC of H1L2_15A7.5 anti-Nectin-4 mAb (HC SEQ ID NO:5, LC SEQ ID NO:6) conjugated via cysteines to exatecan Linker-Payload of Formula (L-P′) (conjugate)
heavy: EVQLVESGGGLVQPGGSLRLSCAASGFTFSNYGMAWVRQAPGKGLEWVSFISNLAYGINYADTVTGRFTISRDNAKNSLYLQMNSLRAEDTAVYYCARGARATGWFAYWGQGTLVTVSSASTKGPSVFPLAPSSKSTSGGTAALGCLVKDYFPEPVTVSWNSGALTSGVHTFPAVLQSSGLYSLSSVVTVPSSSLGTQTYICNVNHKPSNTKVDKRVEPKSCDKTHTCPPCPAPEFEGGPSVFLFPPKPKDTLMISRTPEVTCVVVDVSHEDPEVKFNWYVDGVEVHNAKTKPREEQYNSTYRVVSVLTVLHQDWLNGKEYKCKVSNKALPASIEKTISKAKGQPREPQVYTLPPSREEMTKNQVSLTCLVKGFYPSDIAVEWESNGQPENNYKTTPPVLDSDGSFFLYSKLTVDKSRWQQGNVFSCSVMHEALHNHYTQKSLSLSPGK
light: DIQMTQSPSSLSASVGDRVTITCKASQNVDTHVAWYQQKPGKAPKALIYSASYRYSGVPSRFSGSGSGTDFTLTISSLQPEDFATYYCQQYNSYPLTFGGGTKVEIKRTVAAPSVFIFPPSDEQLKSGTASVVCLLNNFYPREAKVQWKVDNALQSGNSQESVTEQDSKDSTYSLSSTLTLSKADYEKHKVYACEVTHQGLSSPVTKSFNRGEC
modifications: exatecan linker-payload conjugated via cysteines
With B1 the material aggregated was “less than 5%”.
